Earlier results in US7332523B2, “TNP-470 polymer conjugates and use thereof” (Children's Medical Center Corporation, priority 2002, dated 2008).

Settings: clinical pharmacokinetics; cited from earlier work

In the case of HPMA copolymer-doxorubicin [PK1], the t1/2α is given as 1.8 h.
